Reference: patent US20120196828A1, “SENSITIZATION OF CANCER CELLS TO TREATMENT” (priority 2011, published 2012)
Values joined by “and” are separate entries in the source; they are usually repeats but may differ in a detail not shown here. Equal values may be shown once.

Columns and labels:
[1] = Method: All experiments were conducted on female athymic nude mice (Hsd:Athymic Nude-Foxn1nu) supplied by Harlan (Indianapolis, Ind.). Mice were received at four weeks of age, 12-15 grams in weight, and were acclimated for seven days prior to handling. The mice were housed in microisolator cages (Lab Products, Seaford, Del.) and maintained under specific pathogen-free conditions. All procedures were carried out under appropriate institutional guidelines for animal care.
Seven days following inoculation, tumors were measured using calipers and tumor weight was calculated using the animal study management software, Study Director V.1.7.54 k (Study Log). See Britten C D, et al. Enhanced antitumor activity of 6-hydroxymethylacylfulvene in combination with irinotecan and 5-fluorouracil in the HT29 human colon tumor xenograft model. Cancer Res 59:1049-1053, 1999. […] Body weights were recorded when the mice were randomized and were taken twice weekly thereafter in conjunction with tumor measurements, on each of Days 1, 4, 8, 11, 15, 18, 22, 26, 30, 33, and 36.
The study was terminated when the vehicle control reached an endpoint of 1500 mg, on Day 36.

[2] = tested on: BxPC-3 Human Pancreas Tumor Xenograft; assay: BxPC-3 human pancreas tumor xenograft model: tumor weight and tumor growth inhibition; format: in vivo, mouse; conditions: Day 26 vs Day 1, relative to vehicle control (Group 1); deaths not included
Method: Compounds tested in the experiment were as follows. […] A concentration of 4.8 mg/ml was formulated to deliver a 24 mg/kg dose at a 5 ml/kg dose volume when administered subcutaneously. […] Nab-paclitaxel was manufactured by Abraxis BioScience LLC (Bridgewater, N.J.) and diluted in a 0.9% NaCl solution to a concentration of 1.5 mg/ml to deliver 15 mg/kg, in a 10 ml/kg dose volume. All standard agent preparations were made fresh prior to their administration.
BxPC-3 cells were obtained and prepared as follows. The BxPC-3 pancreas tumor cell line was received from American Type Culture Collection (ATCC, Manassas, Va.). Cultures were maintained in RPMI 1640 medium (Hyclone, Logan, Utah) supplemented with 5% fetal bovine serum. The cells were housed in a 5% CO2 atmosphere. The cultures were expanded in tissue culture flasks at a 1:3 split ratio until a sufficient amount of cells were harvested. […]
Seven days following inoculation, tumors were measured using calipers and tumor weight was calculated using the animal study management software, Study Director V.1.7.54 k (Study Log). […] Body weights were recorded when the mice were randomized and were taken twice weekly thereafter in conjunction with tumor measurements, on each of Days 1, 4, 8, 11, 15, 18, 22, 26, 30, 33, and 36. […]
Mean tumor growth inhibition (TGI) was calculated utilizing Formula A below (deaths were not included in the TGI calculations). […]

Structure (SMILES)	Day 22 Average Weight ([1]; Day 22) [g]	Day 26 % TGI [2]	Day 4 Average Weight ([1]; Day 4) [g]	Day 8 Average Weight ([1]; Day 8) [g]	Day 11 % Weight Loss or Gain ([1]; Day 11, vs starting weight) [%]	Day 18 Average Weight ([1]; Day 18) [g]
Nc1ccn([C@@H]2O[C@H](CO)[C@@H](O)C2(F)F)c(=O)n1 [Gemcitabine]	24.41	15.3% and 15.3 (10/10) %				
O=C1[O][Pt]2([NH][C@@H]3CCCC[C@H]3[NH]2)[O]C1=O [Oxaliplatin]			20.40	20.65	−3.36	20.45
